Test results: patent US5128242A, “Hypothalamic polypeptides with adenylate cyclase stimulating activity” (The Administrators of the Tulane Educational Fund, priority 1989, dated 1992)

Test system: superfused pituitary cells
Assay: Superfusion method using rat pituitary cell column: release of pituitary hormones
Assay type: cell-based
Conditions: 3 min pulse, 10^-10 to 10^-6 M; bell-shaped dose response
Method: FIGS. 5A-5D. The effect of synthetic PACAP38 on the release of pituitary hormones from superfused pituitary cells. A pituitary cell superfusion method to determine the hypophysiotropic activity of samples was conducted as reported by Vigh and Schally. The peptide was applied as a 3 min pulse. The numbers at top indicate; 1,7: 100 mM KCl, 2: 10^-10 M PACAP38, 3: 10^-9 M PACAP38, 4: 10^-8 M PACAP38, 5: 10^-7 M PACAP38, 6: 10^-6 M PACAP38. 0.9 ml fractions were collected every 3 min.
A pituitary cell superfusion method to determine the hypophysiotropic activity of samples was conducted as reported by Vigh and Schally (1984). Pituitaries obtained from 3 adult female rats were cut into small pieces and incubated in a Dubnoff incubator for 45 min at 37° C. in 10 ml of oxygenated Medium 199 (Gibco/Life Technologies) containing 0.5% collagenase (Sigma Type I), 0.25% BSA and […] gentamicin sulphate (Sigma). After this incubation, there were no apparent changes in the pituitary tissue, but the fragments could be easily dispersed into single cells by repeated suction and expulsion from a Pasteur pipet. After 30 to 60 pipet operations, the tissue fell apart. The cell suspension was centrifuged at room temperature for 10 min at 100×g. The cell pellet was then resuspended in 1.0 ml medium. A small aliquot was diluted to count the cells, and the remainder of the suspension was divided into 2 equal volumes. Each volume (containing about 5×10^6 cells and usually between 3.5 and 7.0×10^6) was mixed with 0.5 ml Sephadex G-15 which had been equilibrated with previously oxygenated medium. The mixture of pituitary cells and Sephadex was transferred into 2 chambers of the superfusion apparatus and perfused with the medium. The medium was always freshly prepared in a way similar to that for enzymatic dispersion, omitting the collagenase, then passed through a Millipore filter, and continuously gassed with a mixture of O2 (95%) and CO2 (5%) during the experiment. […]

CC[C@H](C)[C@H](NC(=O)CNC(=O)[C@H](CC(=O)O)NC(=O)[C@H](CO)NC(=O)[C@@H](N)Cc1c[nH]cn1)C(=O)N[C@@H](Cc1ccccc1)C(=O)N[C@H](C(=O)N[C@@H](CC(=O)O)C(=O)N[C@@H](CO)C(=O)N[C@@H](Cc1ccc(O)cc1)C(=O)N[C@@H](CO)C(=O)N[C@@H](CCCNC(=N)N)C(=O)N[C@@H](Cc1ccc(O)cc1)C(=O)N[C@@H](CCCNC(=N)N)C(=O)N[C@@H](CCCCN)C(=O)N[C@@H](CCC(N)=O)C(=O)N[C@@H](CCSC)C(=O)N[C@@H](C)C(=O)N[C@H](C(=O)N[C@@H](CCCCN)C(=O)N[C@@H](CCCCN)C(=O)N[C@@H](Cc1ccc(O)cc1)C(=O)N[C@@H](CC(C)C)C(=O)N[C@@H](C)C(=O)N[C@@H](C)C(=O)N[C@H](C(=O)N[C@@H](CC(C)C)C(=O)NCC(=O)N[C@@H](CCCCN)C(=O)N[C@@H](CCCNC(=N)N)C(=O)N[C@@H](Cc1ccc(O)cc1)C(=O)N[C@@H](CCCCN)C(=O)N[C@@H](CCC(N)=O)C(=O)N[C@@H](CCCNC(=N)N)C(=O)N[C@H](C(=O)N[C@@H](CCCCN)C(=O)N[C@@H](CC(N)=O)C(=O)N[C@@H](CCCCN)C(N)=O)C(C)C)C(C)C)C(C)C)[C@@H](C)O [PACAP38]
stimulated release: ACTH release | GH release | PRL release
